Data as given in patent publication US20110038796A1, “Method of Nuclear Medical Photography Using Dual-Isotopes” (ATOMIC ENERGY COUNCIL-INSTITUTE OF NUCLEAR ENERGY RESEARCH, priority 2009, published 2011).

System: serotonin transporter
Experiment: SPECT with [^123I]ADAM (single-isotope or dual-isotopes), specific uptake ratio in brain regions
Type: in vivo, Macaca Cyclopis
Method: Please refer to FIG. 1, which is a flow view showing a preferred embodiment according to the present disclosure. As shown in the figure, the present disclosure is a method of nuclear medical photography using dual-isotopes, where effect of using dual isotopes on diagnosing anomalies of dopamine and serotonin in primate's brain is evaluated. The present disclosure comprises the following steps: (a) Obtaining control group 11: A control group is obtained, comprising at least one first individual applied with an imaging agent of single-isotope of [^99mTc]TRODAT-1 for dopamine transporter; at least one second individual applied with an imaging agent of single-isotope of [^123I]ADAM for serotonin transporter; and at least one third individual applied with imaging agents of dual-isotopes of [^99mTc]TRODAT-1 and [^123I]ADAM. Therein, the individuals are non-human primates, like Macaca Cyclopis.
(b) Taking photos for control group 12: Photos of the first to the third individuals in the control group are taken through single photon emission computed tomography (SPECT). Therein, on taking the photo of the first individual applied with the single-isotope of [^99mTc]TRODAT-1, 90 mg/ml of KClO4 is applied to the first individual at first; and, then, after 20 minutes, 740 MBq (20 mCi) of [^99mTc]TRODAT-1 is injected from intravenous. After [^99mTc]TRODAT-1 is injected, a SPECT device equipped with dual-headed gamma cameras (Hawkeye, Millennium VG, General Elecral Medical System, Milwaukee, Wis. USA) coordinated with fan-beam collimators is used to take photos, where 15 dynamic sequence of brain images are taken during 30 minutes (2 min/frame). Therein, an energy window is set between 126 Kev and 154 Kev; data of 128×128 pixel-matrice are fetched; each photo are enlarged for 1.6 times; a photo is taken for each 3° from 360°; and, each of the two detectors is responsible for taking photos for 180°. After data are collected and processed through Metz filter with attenuation calibration, three three-dimensional (3D) photos of coronal, sagittal and transaxial sections are formed. On taking the photo of the second individual applied with the single-isotope of [^123I]ADAM, 185 MBq (5 mCi) of [^123I]ADAM is injected from intravenous; and, an energy window is set between 143 Kev and 175 Kev. On taking the photo of the third individual applied with the dual-isotopes, 90 mg/ml of KClO4 is applied to the […] at first; and, after 20 minutes, 740 MBq (20 mCi) of [^99mTc]TRODAT-1 and 185 MBq (5 mCi) of [^123I]ADAM are injected from intravenous almost simultaneously. Therein, an energy window for [^99mTc]TRODAT-1 is set between 129 Kev and 151 Kev and another energy window for [^123I]ADAM is set between 159 Kev and 175 Kev. […]

## CNCCC(Oc1ccc(C(F)(F)F)cc1)c1ccccc1 (stereo not shown) [fluoxetine]
Frontal cortex, dual-isotopes, pretreated with fluoxetine for 16 hours
  [^123I]ADAM SURs after pretreatment with fluoxetine: no big change
midbrain, striatum and thalamus, dual-isotopes, 180 to 210 minutes after injection, fluoxetine 20 mg/Tab.
  uptake of [^123I]ADAM after pretreatment with fluoxetine: totally blocked
midbrain, thalamus, striatum and frontal cortex, pretreated with fluoxetine for 16 hours
  uptakes and SURs of [^123I]ADAM after pretreatment with fluoxetine (conclusion): blocked
striatum, thalamus and midbrain, dual-isotopes, pretreated with fluoxetine for 16 hours
  [^123I]ADAM SURs after pretreatment with fluoxetine: lowered
